In ChEMBL document CHEMBL3352357, “Synthesis and pharmacological evaluation of 5-pyrrolidinylquinoxalines as a novel class of peripherally restricted κ-opioid receptor agonists” (J Med Chem, 2014):
Where “and” joins values, the source holds several entries; their conditions need not be identical. Equal values may be shown once.

Chains of the proteins cited; added tags and fusions are not shown. Lines headed by an entry give the natural chain unless they say otherwise; changes in a name come on top.
UniProt P35372, whole entry, looked up: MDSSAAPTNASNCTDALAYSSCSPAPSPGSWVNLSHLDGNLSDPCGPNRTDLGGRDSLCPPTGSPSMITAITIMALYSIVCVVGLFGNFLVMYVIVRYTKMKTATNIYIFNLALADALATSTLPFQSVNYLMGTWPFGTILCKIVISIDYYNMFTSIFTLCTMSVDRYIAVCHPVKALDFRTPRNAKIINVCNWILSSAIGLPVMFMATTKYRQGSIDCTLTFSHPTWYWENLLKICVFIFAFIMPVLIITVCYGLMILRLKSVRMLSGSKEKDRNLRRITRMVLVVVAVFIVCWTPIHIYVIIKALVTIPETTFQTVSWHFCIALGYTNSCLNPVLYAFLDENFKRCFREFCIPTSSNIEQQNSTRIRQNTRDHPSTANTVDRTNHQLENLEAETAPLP
UniProt P41144: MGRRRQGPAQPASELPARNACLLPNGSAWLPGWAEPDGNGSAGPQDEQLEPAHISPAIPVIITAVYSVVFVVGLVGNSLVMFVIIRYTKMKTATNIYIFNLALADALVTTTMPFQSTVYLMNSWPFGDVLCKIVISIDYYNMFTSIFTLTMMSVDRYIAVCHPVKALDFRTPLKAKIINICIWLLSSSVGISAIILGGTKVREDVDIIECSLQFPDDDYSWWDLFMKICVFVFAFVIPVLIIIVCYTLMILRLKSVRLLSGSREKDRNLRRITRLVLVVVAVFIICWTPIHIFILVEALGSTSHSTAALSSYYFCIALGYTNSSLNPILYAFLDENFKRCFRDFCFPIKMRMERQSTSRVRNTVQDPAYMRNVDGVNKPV
UniProt Q60492, whole entry, looked up: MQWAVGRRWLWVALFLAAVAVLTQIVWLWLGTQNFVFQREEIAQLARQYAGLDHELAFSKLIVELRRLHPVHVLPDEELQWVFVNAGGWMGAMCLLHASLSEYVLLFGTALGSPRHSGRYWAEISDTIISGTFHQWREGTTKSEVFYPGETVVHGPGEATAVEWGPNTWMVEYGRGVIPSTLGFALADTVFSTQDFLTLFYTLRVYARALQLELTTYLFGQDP

Key:
Mu-type opioid receptor = Mu-type opioid receptor (Homo sapiens, UniProt P35372); details: cho-k1
[1] = biological target: Kappa-type opioid receptor (Cavia porcellus, UniProt P41144); experiment: Displacement of [3H]U-69593 from kappa opioid receptor in guinea pig brain membranes after 2 hrs by scintillation counting analysis; type: cell membranes, Membrane
[2] = biological target: Sigma non-opioid intracellular receptor 1 (Cavia porcellus, UniProt Q60492); experiment: Displacement of [3H]-(+)-pentazocine from sigma-1 receptor in guinea pig brain cortex membranes; type: cell membranes; details: Cerebral cortex

| SMILES | Ki (Mu-type opioid receptor) | Ki [1] | Ki [2] |
| --- | --- | --- | --- |
| O=C(Cc1ccc(Cl)c(Cl)c1)N1CCNC2CCCC(N3CCCC3)C21 (racemic) | 2800 nM | 2.1 nM | – |
| CN1CCN(C(=O)Cc2ccc(Cl)c(Cl)c2)C2C1CCCC2N1CCCC1 (stereo unspecified) | 5100 nM | 2.7 nM | – |
| O=C(Cc1ccc(Cl)c(Cl)c1)N1CCNC2CCCC(N3CCC(O)C3)C21 (stereo unspecified) | 4900 nM | 8.7 nM and 2.8 nM and 16 nM | – |
| CC(=O)N1CCN(C(=O)Cc2ccc(Cl)c(Cl)c2)C2C(N3CCCC3)CCCC21 (stereo unspecified) | 2800 nM | 24 nM | – |
| CN1CCN(C(=O)Cc2ccc(Cl)c(Cl)c2)C2C1CCCC2N1CCC(O)C1 (stereo unspecified) | 6000 nM | 5.4 nM | 818 nM |
| O=C(O)CCC(=O)N1CCN(C(=O)Cc2ccc(Cl)c(Cl)c2)C2C(N3CCCC3)CCCC21 (stereo unspecified) | – | 136 nM | – |
| CCC(=O)N1CCN(C(=O)Cc2ccc(Cl)c(Cl)c2)C2C(N3CCCC3)CCCC21 (stereo unspecified) | – | 26 nM | – |
| CCOC(=O)N1CCN(C(=O)Cc2ccc(Cl)c(Cl)c2)C2C(N3CCCC3)CCCC21 (stereo unspecified) | – | 15 nM | – |
| O=C(Cc1ccc(Cl)c(Cl)c1)N1CCN(Cc2cnc[nH]2)C2CCCC(N3CCCC3)C21 (stereo unspecified) | – | 4.3 nM | – |
| O=C(O)CC(=O)N1CCN(C(=O)Cc2ccc(Cl)c(Cl)c2)C2C(N3CCCC3)CCCC21 (stereo unspecified) | – | 169 nM | – |
